# Data reported in US10071158B2, “Combination of the application of antibodies for immunostimulation together with glucocorticoids” (Lindis Biotech GmbH, priority 2005, dated 2018).
# Columns and labels:
# PBMC [1] = assay: Release of TNF-α by PBMC after stimulation with Herceptin without/with HER2/neu-positive tumour cells (HCT8); assay type: cell-based, human; settings: Herceptin 1 mg/ml with HCT8 and dexamethasone (FIG. 18)
# Description: (§1) FIGS. 17 to 18 show graphic representations of the results of the release of various cytokines in healthy test subjects by PBMC (at a concentration of 10^6 cells/ml) after stimulation with the monoclonal monospecific antibody Herceptin (AK) (at a concentration of 1 mg/ml) without and in the presence of HER2/neu-positive tumour cells (HCT8) (at a concentration of 5×10^4 cells/ml). On the y-axes the concentration of the respective cytokine in pg/ml has been plotted. On the x-axes the respective stimulation assays of the PBMC have been plotted. […] The values of unstimulated PBMC by way of control have likewise been plotted (“PBMC”).
# (§2) After the stimulation the determination of the concentrations of the cytokines IL-6, IL-10, TNF-α and IFN-γ was undertaken in the supernatant on plates with 24 recesses in each instance by means of an ELISA. In each instance duplicate measurements were carried out. The ELISAs were undertaken by means of standardised kits produced by R&D Systems, in accordance with the manufacturer's instructions.
# PBMC [2] = assay: Release of IL-6 by PBMC after stimulation with Herceptin without/with HER2/neu-positive tumour cells (HCT8); assay type: cell-based, human
# Description: as §1, §2
substance,measurement,setting,value
"Herceptin: monoclonal monospecific antibody Herceptin, tested with HER2/neu-positive tumour cells",specific action (release of TNF-α at the site of antigen binding),PBMC [1],very strong specific action
same,effects on the release of various cytokines compared with the anti-EpCAM x anti-CD3 antibody,PBMC [2]; FIGS. 17 to 18 versus FIGS. 11 to 16,substantially the same effects
same,specific action (release of IL-6 at the site of antigen binding),PBMC [2]; Herceptin 1 mg/ml with HCT8 and dexamethasone (FIG. 17),strong specific action
